Data published in ChEMBL document CHEMBL3259517, “Synthesis and evaluation of phosphorus containing, specific CDK9/CycT1 inhibitors” (J Med Chem, 2014).

The chains behind the UniProt entries cited, without tags or fusion partners. Residues count along the entry.
UniProt P24864, whole entry: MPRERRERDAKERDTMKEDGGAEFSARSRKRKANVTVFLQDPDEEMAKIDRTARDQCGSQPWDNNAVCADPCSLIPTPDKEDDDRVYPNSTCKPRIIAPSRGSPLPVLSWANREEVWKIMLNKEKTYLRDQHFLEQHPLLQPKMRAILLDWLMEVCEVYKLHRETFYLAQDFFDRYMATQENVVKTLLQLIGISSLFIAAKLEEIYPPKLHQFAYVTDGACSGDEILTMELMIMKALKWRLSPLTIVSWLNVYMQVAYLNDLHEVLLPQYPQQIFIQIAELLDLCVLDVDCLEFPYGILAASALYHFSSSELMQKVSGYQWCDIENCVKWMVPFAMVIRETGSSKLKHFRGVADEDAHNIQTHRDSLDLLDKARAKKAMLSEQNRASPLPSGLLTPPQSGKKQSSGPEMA
UniProt P11802, 2-303 limits assumed: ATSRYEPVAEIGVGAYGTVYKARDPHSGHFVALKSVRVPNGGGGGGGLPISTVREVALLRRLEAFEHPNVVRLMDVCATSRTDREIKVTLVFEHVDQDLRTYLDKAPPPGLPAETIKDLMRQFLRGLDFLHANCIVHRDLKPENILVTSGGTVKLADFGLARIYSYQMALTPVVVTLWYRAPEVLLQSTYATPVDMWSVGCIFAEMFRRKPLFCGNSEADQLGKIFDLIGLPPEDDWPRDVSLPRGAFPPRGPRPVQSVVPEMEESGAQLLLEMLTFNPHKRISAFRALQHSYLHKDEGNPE
UniProt P24385, whole entry partner: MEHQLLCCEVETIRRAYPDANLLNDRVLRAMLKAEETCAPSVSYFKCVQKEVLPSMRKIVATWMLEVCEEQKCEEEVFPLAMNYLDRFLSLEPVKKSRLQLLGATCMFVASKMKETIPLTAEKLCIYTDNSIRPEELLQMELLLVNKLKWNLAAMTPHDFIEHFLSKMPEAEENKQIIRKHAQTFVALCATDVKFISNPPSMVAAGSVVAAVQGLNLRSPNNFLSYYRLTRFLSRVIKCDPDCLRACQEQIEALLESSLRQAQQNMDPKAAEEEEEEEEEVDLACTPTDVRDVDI

biological target: Cyclin-dependent kinase 2/cyclin E1 (Homo sapiens) (UniProt P24864+P24941); test: Inhibition of CDK2/CycE (unknown origin) using FAM labeled peptide as substrate at 10 uM by IMAP FAM FP assay; type: protein-complex assay
Method in brief: (§1)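 Run by contract partners as an IMAP fluorescence polarization assay. […] Enzyme amount was set to give 50% substrate turnover. Compounds were added in DMSO, IMAP binding solution added after the kinase step, then FP read.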

Structure (SMILES)	inhibition [%]
CCCP(=O)(O)Oc1cc(Nc2cc(-c3ccccc3OC)ncn2)ccc1C	34
CCCP(=O)(Oc1cc(Nc2cc(-c3ccccc3OC)ncn2)ccc1C)OC(C)C (stereo not drawn)	6
CCOP(=O)(CC)Oc1cc(Nc2cc(-c3ccccc3OC)ncn2)ccc1C (stereo not drawn)	1
CCCP(=O)(Nc1cc(Nc2cc(-c3ccccc3OC)ncn2)ccc1C)OC(C)C (stereo not drawn)	32

biological target: Cyclin-dependent kinase 4/cyclin D1 (Homo sapiens) (UniProt P11802+P24385); test: Inhibition of CDK4/CycD1 (unknown origin) using FAM labeled peptide as substrate at 10 uM by IMAP FAM FP assay; type: protein-complex assay; method in brief: as §1

Structure (SMILES)	inhibition [%]
CCCP(=O)(O)Oc1cc(Nc2cc(-c3ccccc3OC)ncn2)ccc1C	46
CCCP(=O)(Oc1cc(Nc2cc(-c3ccccc3OC)ncn2)ccc1C)OC(C)C (stereo not drawn)	21
CCOP(=O)(CC)Oc1cc(Nc2cc(-c3ccccc3OC)ncn2)ccc1C (stereo not drawn)	13
CCCP(=O)(Nc1cc(Nc2cc(-c3ccccc3OC)ncn2)ccc1C)OC(C)C (stereo not drawn)	2
